Measurements published in ChEMBL document CHEMBL3784934, “N-Alkylpyrido[1',2':1,5]pyrazolo-[4,3-d]pyrimidin-4-amines: A new series of negative allosteric modulators of mGlu1/5 with CNS exposure in rodents” (Bioorg Med Chem Lett, 2016).

By UniProt entry, the sequences of proteins in these tests, tags left out. Where a name states a change or a piece, a line headed by the entry shows the natural chain unless it says otherwise.
UniProt P31424, whole entry: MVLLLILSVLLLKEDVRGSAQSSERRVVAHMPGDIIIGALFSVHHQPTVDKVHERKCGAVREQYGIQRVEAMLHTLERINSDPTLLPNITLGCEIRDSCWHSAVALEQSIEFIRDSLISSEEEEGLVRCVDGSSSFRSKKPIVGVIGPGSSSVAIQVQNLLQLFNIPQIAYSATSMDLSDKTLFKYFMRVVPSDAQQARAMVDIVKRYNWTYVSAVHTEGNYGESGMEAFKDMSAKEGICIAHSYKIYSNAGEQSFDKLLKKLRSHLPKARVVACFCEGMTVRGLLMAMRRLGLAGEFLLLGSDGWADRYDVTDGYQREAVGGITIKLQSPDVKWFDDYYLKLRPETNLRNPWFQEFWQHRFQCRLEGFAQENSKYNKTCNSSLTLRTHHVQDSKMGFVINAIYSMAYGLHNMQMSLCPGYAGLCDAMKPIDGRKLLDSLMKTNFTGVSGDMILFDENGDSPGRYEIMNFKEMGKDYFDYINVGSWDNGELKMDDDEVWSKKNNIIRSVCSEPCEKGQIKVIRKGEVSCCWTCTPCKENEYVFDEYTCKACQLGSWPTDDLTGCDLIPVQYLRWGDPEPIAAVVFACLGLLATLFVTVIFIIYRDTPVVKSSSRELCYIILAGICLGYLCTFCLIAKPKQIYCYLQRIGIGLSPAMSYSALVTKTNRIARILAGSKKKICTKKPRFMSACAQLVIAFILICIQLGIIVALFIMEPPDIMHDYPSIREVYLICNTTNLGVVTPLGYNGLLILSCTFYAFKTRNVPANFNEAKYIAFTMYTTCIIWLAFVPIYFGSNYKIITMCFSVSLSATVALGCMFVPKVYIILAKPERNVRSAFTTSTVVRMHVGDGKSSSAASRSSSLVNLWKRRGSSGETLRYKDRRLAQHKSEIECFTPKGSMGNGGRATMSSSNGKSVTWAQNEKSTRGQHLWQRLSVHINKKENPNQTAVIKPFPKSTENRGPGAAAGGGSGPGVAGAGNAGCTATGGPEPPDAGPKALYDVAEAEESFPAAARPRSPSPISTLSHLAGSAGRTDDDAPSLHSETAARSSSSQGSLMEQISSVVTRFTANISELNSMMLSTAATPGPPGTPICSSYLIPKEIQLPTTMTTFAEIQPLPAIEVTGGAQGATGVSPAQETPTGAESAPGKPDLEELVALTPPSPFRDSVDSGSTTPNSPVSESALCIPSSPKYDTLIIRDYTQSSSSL
UniProt P23385: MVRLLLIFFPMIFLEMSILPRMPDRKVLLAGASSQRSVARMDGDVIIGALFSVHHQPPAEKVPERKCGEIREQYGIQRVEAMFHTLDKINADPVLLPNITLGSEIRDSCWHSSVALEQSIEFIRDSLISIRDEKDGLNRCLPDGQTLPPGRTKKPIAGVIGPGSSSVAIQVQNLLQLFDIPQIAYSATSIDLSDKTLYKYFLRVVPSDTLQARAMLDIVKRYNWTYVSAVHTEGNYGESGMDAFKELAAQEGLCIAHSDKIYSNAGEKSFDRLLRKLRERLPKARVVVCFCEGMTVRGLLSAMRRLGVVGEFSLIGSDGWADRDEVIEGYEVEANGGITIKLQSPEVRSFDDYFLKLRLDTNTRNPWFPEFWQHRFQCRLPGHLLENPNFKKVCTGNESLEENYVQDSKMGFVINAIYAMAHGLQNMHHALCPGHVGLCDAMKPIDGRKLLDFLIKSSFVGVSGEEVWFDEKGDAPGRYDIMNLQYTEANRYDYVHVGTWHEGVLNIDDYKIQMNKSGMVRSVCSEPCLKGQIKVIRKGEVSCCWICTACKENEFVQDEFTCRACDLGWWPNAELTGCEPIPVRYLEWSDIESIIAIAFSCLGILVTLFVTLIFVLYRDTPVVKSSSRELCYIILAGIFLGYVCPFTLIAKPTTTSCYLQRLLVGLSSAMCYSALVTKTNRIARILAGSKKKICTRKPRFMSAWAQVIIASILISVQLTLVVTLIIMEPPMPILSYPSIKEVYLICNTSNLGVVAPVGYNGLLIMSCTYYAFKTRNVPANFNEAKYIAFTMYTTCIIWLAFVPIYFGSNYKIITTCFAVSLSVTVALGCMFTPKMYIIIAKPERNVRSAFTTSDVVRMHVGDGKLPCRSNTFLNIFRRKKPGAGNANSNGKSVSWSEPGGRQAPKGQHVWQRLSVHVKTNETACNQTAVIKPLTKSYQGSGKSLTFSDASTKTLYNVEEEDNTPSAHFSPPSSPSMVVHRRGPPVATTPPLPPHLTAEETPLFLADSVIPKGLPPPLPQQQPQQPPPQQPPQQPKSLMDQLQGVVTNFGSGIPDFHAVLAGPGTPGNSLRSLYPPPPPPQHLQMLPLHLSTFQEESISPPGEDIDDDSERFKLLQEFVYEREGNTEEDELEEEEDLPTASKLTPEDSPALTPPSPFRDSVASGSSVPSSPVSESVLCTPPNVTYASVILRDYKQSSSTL

What follows are molecules tested against Metabotropic glutamate receptor 5 (Rattus norvegicus, UniProt P31424) (assay: Negative allosteric modulation of rat mGluR5 expressed in HEK293 cells assessed as inhibition of glutamate induced calcium mobilization by calcium mobilization assay). Settings: read-out: IC50.
Assay type: functional, cell-based

| Compound | IC50 [nM] |
| --- | --- |
| Cc1nc(N[C@@H]2C[C@@H]3C[C@H]([C@H]2C)C3(C)C)c2nn3ccccc3c2n1 | > 30000 |
| c1ccc2c(c1)CC(Nc1ncnc3c1nn1ccccc31)C2 | 2700 |

Same assay, conditions: read-out: pIC50 (converted)

| Compound | IC50 [nM] |
| --- | --- |
| Cc1nc(N[C@@H]2C[C@@H]3C[C@H]([C@H]2C)C3(C)C)c2nn3ccccc3c2n1 | > 31600 |

Each molecule was assayed against Metabotropic glutamate receptor 1 (Rattus norvegicus, UniProt P23385) (assay: Negative allosteric modulation of rat mGluR1 expressed in HEK293 cells assessed as inhibition of glutamate induced calcium mobilization by calcium mobilization assay). Settings: not given.
Assay type: functional, cell-based

| Compound | IC50 [nM] |
| --- | --- |
| C[C@@H](Nc1ncnc2c1nn1ccccc21)C1CCCCC1 | 462 |
| C[C@@H](Nc1ncnc2c1nn1ccccc21)C(C)(C)C | 883 |
| CC1(C)[C@@H]2CC[C@]1(C)[C@@H](Nc1ncnc3c1nn1ccccc31)C2 | 1610 |
| Cc1nc(N[C@H]2C[C@H]3CC[C@@]2(C)C3(C)C)c2nn3ccccc3c2n1 | 1610 |
| Cc1nc(N[C@H]2CC[C@H](C)CC2)c2nn3ccccc3c2n1 | 1800 |
| c1ccn2nc3c(NC4CCCCC4)ncnc3c2c1 | 2720 |
